Data: PubChem BioAssay AID504652 (National Center for Advancing Translational Sciences (NCATS), 2011)
Values joined by “and” are separate entries in the source; they are usually repeats but may differ in a detail not shown here. Identical values can stand only once. The list shows a part of the results, in another mix than the full data. Some tests of the compounds listed are not included; inactive here does not mean inactive elsewhere. Active and inactive are the calls of the source. Cut-off read from the data, not from the text of the source: active = activity change below about -30%; inactive = the rest.
% is set by controls: 0 for no effect and ±100 for the full control effect.

Protein sequences, listed by entry. Tags and fused reporters are not part of them.
UniProt P21728, whole entry: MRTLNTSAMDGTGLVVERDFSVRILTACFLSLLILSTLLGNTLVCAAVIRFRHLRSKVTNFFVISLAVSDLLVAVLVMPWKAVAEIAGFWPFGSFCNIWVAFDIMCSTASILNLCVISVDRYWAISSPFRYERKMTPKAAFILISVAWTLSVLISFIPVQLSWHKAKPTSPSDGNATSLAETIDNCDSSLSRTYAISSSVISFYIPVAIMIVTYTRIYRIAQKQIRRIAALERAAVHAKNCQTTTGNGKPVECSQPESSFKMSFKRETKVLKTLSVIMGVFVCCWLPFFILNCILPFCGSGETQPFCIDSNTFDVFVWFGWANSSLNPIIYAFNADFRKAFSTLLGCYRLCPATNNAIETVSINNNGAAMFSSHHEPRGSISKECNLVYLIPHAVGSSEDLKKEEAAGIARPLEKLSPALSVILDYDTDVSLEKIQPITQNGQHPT

Each compound was assayed against D(1A) dopamine receptor (Homo sapiens) (UniProt P21728) (assay: Antagonist of Human D 1 Dopamine Receptor: qHTS). Conditions: HEK293 TREx D1 cells, calcium flux, dopamine EC80; at 10 µM; active compounds read low.
Source text: Dopamine receptors (DARs) are involved in the etiology and/or therapy of a number of neuropsychiatric and endocrine disorders. For instance, all receptor-based antiparkinsonian drugs work via stimulating the […] DAR subtype whereas all FDA-approved antipsychotic agents are antagonists of this receptor. […] There are three different types of allosteric modulators that we are seeking, two of which will stimulate or augment receptor signaling, allosteric agonists and potentiators, while the third, allosteric antagonists, will attenuate receptor signaling. The present primary screening assay measures compound antagonism after an EC80 addition of dopamine by tracking calcium flux in a […], inducible Hek293 Trex D1 cell line. NIH Chemical Genomics Center [NCGC] NIH Molecular Libraries Probe Centers Network [MLPCN] MLPCN Grant: NS064831-01 Assay Submitter (PI): David Sibley
Freshly passaged cells are plated in 1536 well black, clear bottom plates at a density of 4000 cells/well in 3 ul of complete media containing 1x tetracycline inducer. After an overnight incubation at 30 C in 5% CO2, cells are loaded with 2 ul of the no wash Calcium Assay Kit (ABD Bioquest) and incubated at room temperature for 30 to 90 minutes. Agonist read: A 10 cycle (1 second/cycle) baseline measurement is taken and then the FDSS online 1536 pintool delivers 23 nl of compound library (as well as dopamine controls) to the plate. The plate is measured for kinetically at 1 cycle/sec for 180 seconds. Following the 180 second read, 1 ul of an EC80 (negative modulation assay) is delivered by an onboard pipette head. Measurements are taken kinetically for an additional 180 seconds.
For `O=C(NCC1(N2CCCCC2)CCCCC1)c1cc(F)c(F)cc1Cl`, the activity change, negative = inhibition was inactive: -6.21%. For `C=CCN1CCN(CCOC(=O)C(O)(c2ccccc2)c2ccccc2)CC1`, the activity change, negative = inhibition was inactive: 8.65%. With `O=C(NCC1(N2CCCCC2)CCCCC1)c1cccc(Br)c1` the activity change, negative = inhibition was inactive: 2.56%. In the case of `Cc1cc(C(=O)NCC2(N3CCCCC3)CCCCC2)ccc1[N+](=O)[O-]`, the activity change, negative = inhibition is reported as inactive: 7.06%. With `CCN1CCCC(OC(=O)C2(O)c3ccccc3C=Cc3ccccc32)C1` (stereo not drawn) the activity change, negative = inhibition was inactive: -6.2%. `CCOc1cccc(C(=O)NCC2(N(C)C)CCCCC2)c1` was tested, and the activity change, negative = inhibition was inactive: -4.95%. `COc1ccc(C(=O)NCC2(N(C)C)CCCCC2)cc1` was tested, and the activity change, negative = inhibition was inactive: -3.54%. With `CN(C)C1CCCC1OC(=O)C(O)(c1ccccc1)c1ccccc1` (stereo not drawn) the activity change, negative = inhibition was inactive: -5.66%. In the case of `CN(C)c1ccc(C(=O)NCC2(N(C)C)CCCCC2)cc1`, the activity change, negative = inhibition is reported as inactive: -2.68%. For `CN(C)C1(CNC(=O)c2ccccc2[N+](=O)[O-])CCCCC1`, the activity change, negative = inhibition was inactive: 7.23%. `Cc1ccccc1C(=O)NCC1(N2CCCCC2)CCCCC1` was tested, and the activity change, negative = inhibition was inactive: 14.7%. In the case of `CCCCOc1ccccc1C(=O)NCC1(N(C)C)CCCCC1`, the activity change, negative = inhibition is reported as inactive: -1.35%. In the case of `CC(C)N1C(=O)CC2(CCN(CCOC(=O)C(O)(c3ccccc3)c3ccccc3)CC2)C1=O`, the activity change, negative = inhibition is reported as inactive: -7.26%. With `COc1cc(SC)ccc1C(=O)NCC1(N(C)C)CCCCC1` the activity change, negative = inhibition was inactive: -6.58%. In the case of `CCN(CC)CC(C)C(C)OC(=O)C(O)(c1ccccc1)c1ccccc1` (stereo not drawn), the activity change, negative = inhibition is reported as inactive: -7.46%. In the case of `CN(C)C1(CNC(=O)c2cccc(Cl)c2)CCCCC1`, the activity change, negative = inhibition is reported as inactive: -7.53%. For `CN(C)C1(CNC(=O)c2ccccc2F)CCCCC1`, the activity change, negative = inhibition was inactive: 1.96%. In the case of `Cc1ccc(C(=O)NCC2(N3CCCCC3)CCCCC2)cc1`, the activity change, negative = inhibition is reported as inactive: -4.58%. For `O=C(NCC1(N2CCCCC2)CCCCC1)c1cc([N+](=O)[O-])ccc1Cl`, the activity change, negative = inhibition was inactive: 6.97%. `COc1ccc(Br)c(C(=O)NCC2(N3CCCCC3)CCCCC2)c1` was tested, and the activity change, negative = inhibition was inactive: 0.873%. In the case of `Cc1cccc(C(=O)NCC2(N(C)C)CCCCC2)c1`, the activity change, negative = inhibition is reported as inactive: 9.66%. For `COc1cc(C(=O)NCC2(N(C)C)CCCCC2)cc(OC)c1OC`, the activity change, negative = inhibition was inactive: -4.52%. For `CN(C)c1cccc(C(=O)NCC2(N(C)C)CCCCC2)c1`, the activity change, negative = inhibition was inactive: 0.275%. `CC(C)Oc1ccc(C(=O)NCC2(N(C)C)CCCCC2)cc1` was tested, and the activity change, negative = inhibition was inactive: -4.35% and inactive: 7.2%. With `O=C(OC1CN2CCC1CC2)C(CO)(c1ccccc1)c1ccccc1` (stereo not drawn) the activity change, negative = inhibition was inactive: 3.52%. In the case of `COc1cccc(C(=O)NCC2(N3CCOCC3)CCCCC2)c1`, the activity change, negative = inhibition is reported as inactive: -6.87%. In the case of `CC(C)COc1ccc(C(=O)NCC2(N(C)C)CCCCC2)cc1`, the activity change, negative = inhibition is reported as inactive: 1.91%. In the case of `COc1ccc(C(=O)NCC2(N(C)C)CCCCC2)cc1Cl`, the activity change, negative = inhibition is reported as inactive: 4.83%. In the case of `COc1ccc(Cl)cc1C(=O)NCC1(N(C)C)CCCCC1`, the activity change, negative = inhibition is reported as inactive: -0.252%. `COc1cccc(C(=O)NCC2(N3CCCCC3)CCCCC2)c1` was tested, and the activity change, negative = inhibition was inactive: -16.1%. In the case of `O=C(NCC1(N2CCCCC2)CCCCC1)c1cccc(Cl)c1`, the activity change, negative = inhibition is reported as inactive: 0.29%. With `CN(C)C1(CNC(=O)c2ccc(Br)cc2)CCCCC1` the activity change, negative = inhibition was inactive: -0.345%. For `COc1cc(C(=O)NCC2(N(C)C)CCCCC2)c([N+](=O)[O-])cc1OC`, the activity change, negative = inhibition was inactive: -13.1%.
